Measured values taken from PubChem BioAssay AID1347430 (National Center for Advancing Translational Sciences (NCATS), 2020).
The list shows a part of the results, in another mix than the full data. Some of these compounds have results that are not shown, active ones among them. Active and inactive are the calls of the source. Calls follow the shape of the dose curve; as a rule, active = well fitted inhibition curve with a large enough effect; inconclusive = small, poorly fitted or top-dose-only effect; inactive = flat fitted curve, though single readings scatter.

Each compound was assayed on Uracil-DNA glycosylase (assay: Primary qHTS assay for inhibitors of Activation Induced Cytidine Deaminase (AID): UDG Counterscreen signal). Conditions: FRET deamination/UDG coupled assay, UDG read, 4 h; at 115 µM (top of the series).
Source text: Assay Provider (PI) Patricia Gearhart Ph.D.
National Institute on Aging
National Institute of Health (NIH), Bethesda, MD
Assay Provider (PI) Rahul Kohli Ph.D.
Perelman School of Medicine
University of Pennsylvania, Philadelphia, PA
Activation-Induced Deaminase (AID) is a cytosine deaminase which converts cytosine into uracil within stretches of ssDNA. The presence of uracil in DNA initiates a cascade of mutagenic DNA repair to introduce point mutations and DNA double strand breaks. Specific targeting of AID to the immunoglobulin heavy chain loci (Igh) promotes mutagenesis in the antibody variable region for somatic hypermutation (SHM) or switch regions leading to class switch recombination (CSR). However, AID also plays a role in accumulating unnecessary mutations across the genome. Mis-targeting of AID results in the initiation of tumor development and leads to greater drug resistance among cancer cells when continually expressed. To identify an AID inhibitor, a small molecule library will be screened in collaboration with NCATS core facility at NIH. To confirm biological function, inhibitors will be examined in an in vitro murine B-cell activation assay and subsequent secondary validation screens. Top molecules will be further screened to identify inhibitory efficacy against a wild type primary splenocytes assay. Using these approaches, we hope to identify a small molecule with great efficacy and low toxicity for use as a molecular probe to further characterize AID's intricacies, or even as a therapeutic.
A FRET based analysis of cytosine deamination, was developed to identify potential inhibitors of AID catalytic activity. This screen has two signal output, Read 1 evaluates the AID inhibition response. The second readout (Read 2) evaluates UDG response and is uses as a counterscreen to exclude false positive inhibitors. Inhibition in AID and inactivity in the UDG signal is the desired outcome for this assay.
SEQUENCE No. (e.g., 1, 2, 3, etc.); […] (e.g., Cells, Incubation, Reagent, etc.); VALUE; DESCRIPTION
1a; Reagent; 3 uL; [4/3x] 1 uM AID/2.67 U/mL UDG
1b; Reagent; 3 uL; 2 U/mL UDG
1c; Reagent; 3 uL; 1 uM AID
2a; Compound; 46 nL; Follow-up plates (0.64 uM - 10 mM)
2b; Control; 46 nL; ATA ([…] - 10 mM)
3; Time; 10 min; incubation at room temperature
5; Time; 4 hr; incubation at room temperature
6; Reagent; 4 uL; [2x] 250 mM NaOH
7; Time; 15 sec; centrifuge at 1000 rpm
8; Time; 30 min; incubation at room temperature
9a; Detection; fluorescence (Read 1: AID); EnVision (PerkinElmer) plate reader, 540 excitation and 590 emission filters
9b; Detection; fluorescence (Read 2: UDG); EnVision (PerkinElmer) plate reader, 560 excitation and 665 emission filters
NOTES (numbers refer to sequence above)
1a; Reagents were dispensed in a medium-binding black solid-bottom Greiner plates (789176F) using a BioRptr liquid dispenser. Dispense 3 uL of [4/3x] 1 uM AID (provided by Kohli lab) and [4/3x] 2 U/mL UDG (NEB M0280L) into columns 1, 2, 5 to 48.
1b; Dispense 3 uL of [4/3x] 2 U/mL UDG into column 3.
1c; Dispense 3 uL of [4/3x] 1 uM AID into column 4.
2a; Compound (7-points [uM] (0.64; 3.2; 16; 80; 400; 2,000; 10,000; 20,000) double pin-transferred (Dip Factor = 2) using the Kalypsys (Wako USA) pintool equipped with a 1536 pinhead for a final concentration range of 7.32 nM - 114 uM.
2b; 10 mM Aurintricarboxylic Acid (Sigma A1895) (ATA, 8-point, n = 2, 1:2.5 dilution in column 2) double pin-transferred (Dip Factor = 2) using the Kalypsys (Wako USA) pintool equipped with a 1536 pinhead for a [final] range of 186 nM - 114 uM.
3; Room temperature incubation.
4; Dispense 1 uL of substrate mixture from the Kohli lab [4x] […] DJC20 and [4x] 250 nM DJC23 into columns 1 to 48 .
5; Room temperature incubation.
6; Dispense 4 uL of substrate mixture [2x] 250 mM NaOH into columns 1 to 48.
7; Centrifugation step to remove bubbles.
8; Room temperature incubation
9a; Fluorescence signal (column label AID) was read using the EnVision plate reader. […]
% is scaled to controls: 0 for no effect and ±100 for the full control effect.
Also: nearly all actives have a fitted effect of over 65% in size.

| SMILES | activity change, negative = inhibition |
| --- | --- |
| O=C(CCC1CCCCC1)N1CCN(C/C=C/c2ccccc2)CC1 | inactive: -6.4% |
| CC(CCN(CCCl)CCCl)c1ccccc1 (stereo not given) | inactive: -2.6% |
| CN(C)C1(CNC(=O)c2cccc(Cl)c2)CCCCC1 | inactive: -1.1% |
| CN(C)C1(CNC(=O)c2ccccc2F)CCCCC1 | inactive: 4.7% |
| CN(C)C1(CNC(=O)c2ccccc2[N+](=O)[O-])CCCCC1 | inactive: 14.9% |
| CCCCOc1ccccc1C(=O)NCC1(N(C)C)CCCCC1 | inactive: -8.59% |
| CN(C)CCOC(=O)C(O)(c1ccccc1)C1CCCCC1 (stereo not given) | inactive: 8.19% |
| CN(C)C1(CNC(=O)c2cccs2)CCCCC1 | inactive: -10.1% |
| CCOc1cccc(C(=O)NCC2(N(C)C)CCCCC2)c1 | inactive: 4.22% |
| COc1ccc(C(=O)NCC2(N(C)C)CCCCC2)cc1Cl | inactive: -0.199% |
| COc1cccc(C(=O)NCC2(N3CCOCC3)CCCCC2)c1 | inactive: -12.5% |
| CC(C)COc1ccc(C(=O)NCC2(N(C)C)CCCCC2)cc1 | inactive: -23.8% |
| Cc1cccc(C(=O)NCC2(N(C)C)CCCCC2)c1 | inactive: -1.6% |
| COc1cc(C(=O)NCC2(N(C)C)CCCCC2)cc(OC)c1OC | inactive: 11.2% |
| CC(C)Oc1ccc(C(=O)NCC2(N(C)C)CCCCC2)cc1 | inactive: -14.4% |
